The source of these data is patent US9234176B2, “Chemically defined production of cardiomyocytes from pluripotent stem cells” (The Board of Trustees of the Leland Stanford Junior …, priority 2012, dated 2016).

The test system of the experiment is hiPSCs. Briefly: Cardiac differentiation of hiPSCs in CDM3, optimisation of media and small molecules (TNNT2 flow cytometry). The note with it: for cardiomyocyte yield: differentiation without rHA / removal of recombinant albumin in CDM3. The format is cell-based. As for the experimental part:
Cardiac differentiation of hiPSCs. hiPSCs and hESCs (>p20) were split at 1:10 or 1:12 ratios using EDTA as above and grown for 4 days at which time they reached ˜85% confluence. Media was changed to CDM3, consisting of RPMI 1640 (11875, Life Technologies), 495 μg/mL Oryza sativa-derived recombinant human albumin (A0237, Sigma-Aldrich, 75 mg/mL stock solution in dH2O, stored at −20° C.), 213 μg/mL L-ascorbic acid 2-phosphate (Sigma-Aldrich, 64 mg/mL stock solution in dH2O, stored at −20° C.). Media was changed every other day (48 h). For d0-d2, media was supplemented with 6 μM CHIR99021 (LC Laboratories, Woburn, Mass., USA). On d2, media was change to CDM3 supplemented with […] Wnt-C59 (Cellagentech, San Diego, Calif., USA). Media was changed on d4 and every other day for CDM3. Contracting cells were noted from d7.
Wnt inhibitors assessed were IWP-2, IWR-1 (Sigma-Aldrich), XAV-939, ICG-001 (Selleck Chemicals), IWP-4 (Stemgent, Cambridge, Mass., USA), and Wnt-C59 (Cellagentech). GSK3B inhibitors assessed were CHIR99021 (LC Laboratories), BIO, TWS119 (Selleck Chemicals), 1-azenkenpaullone, TDZD-8, ARA014418, and 3F8 (all Sigma-Aldrich). Inhibitors used for pathway analysis were PD173074, SB203580, LDN193189, SB431542 (all Selleck Chemicals), SU5402, Dorsomorphin, A83-01 (Tocris, Bristol, UK), ALK5 inhibitor (Stemgent), and ITD-1 (Xcessbio, San Diego, Calif., USA). All small molecules were re-suspended to 10 mM in dimethyl sulfoxide (DMSO).
Flow cytometry. For optimization of cardiac differentiation conditions, cells were cultured in 12-well plates. For analysis of cardiomyocyte differentiation efficacy and subtype specification, expression of TNNT2, MLC2A and MLC2V was analyzed by flow cytometry. At d14-15 of differentiation, the entire well was dissociated with TrypLE Express for 10 min at 37° C. and transferred to flow cytometry tubes (BD Biosciences). Cells were then fixed with 1% PFA for 15 min, permeabilized with 90% methanol for 15 min and stained using 1:200 mouse monoclonal IgG1 TNNT2 (13-11, Thermo Scientific), 1:400 mouse monoclonal IgG2b MLC2A (MYL7, Synaptic Systems) and 1:200 rabbit polyclonal IgG MLC2V (MYL2, ProteinTech) for 45 min at RT. Secondary staining was performed with 1:1000 Alexa Fluor 488 goat anti-mouse IgG1, 1:1000 Alexa Fluor 488 goat anti-rabbit IgG (H+L), 1:1000 Alexa Fluor 647 goat anti-mouse IgG2b and 1:1000 Alexa Fluor 647 goat anti-rabbit IgG (H+L) secondary antibodies for 20 min. […] Cells were analyzed using a FACSAria II (BD Biosciences) with a […] and FACSDiva software. Data were analyzed using FlowJo 8.7 (Tree Star).
(In general: In flow cytometry, cells or beads pass a laser one at a time.)

For the substance “rHA: recombinant human albumin, Oryza sativa-derived”, the cardiomyocyte yield result was “drastically reduced”. Moreover, for the setting “500 μg/mL rHA”, the “quality of contracting monolayers (qualitative)” value is listed as “produced the most suitable contracting monolayers”. The “quality of contracting monolayers (qualitative)” value (750 μg/mL rHA and above) is recorded as “more likely to have more three-dimensional structures”. Moreover, the cardiomyocyte yield result (listed as recombinant albumin) is listed as “reduction in cardiomyocyte yield”. Further, for the setting “differentiation without rHA, entirely protein-free medium”, the “TNNT2+ cells” value is reported as around 65%.
